Columns and labels:
GST-Ubc1 UBA (yeast) = assay: SPR
GST-hHR23A UBA1 (human) = assay: SPR

| Kd (GST-Ubc1 UBA (yeast)) [µM] | Kd (GST-hHR23A UBA1 (human)) [µM] | Substance |
| --- | --- | --- |
| 460 |  | K48-linked diubiquitin (from UniProt P0CG48 1-76) |
|  | 13 | K48-linked tetraubiquitin (from UniProt P0CG48 1-76) |
| 130 |  | K63-linked diubiquitin (from UniProt P0CG48 1-76) |

— paper PMC2744598
